Apparent affinities of Ab-91 variants for a coronavirus HR2 peptide

Source: Engelhart et al. 2022 (doi:10.1038/s41597-022-01779-4), MIT Lincoln Laboratory and A-Alpha Bio; data file from the FLAb repository.

Target: peptide PDVDLGDISGINAS, taken from heptad repeat 2 (HR2) of SARS-CoV-2 spike.

Parent: Ab-91, a human scFv built as VL, the linker GGGGSGGGGSGGGGS, VH. Only the CDRs of the heavy chain vary.
VL: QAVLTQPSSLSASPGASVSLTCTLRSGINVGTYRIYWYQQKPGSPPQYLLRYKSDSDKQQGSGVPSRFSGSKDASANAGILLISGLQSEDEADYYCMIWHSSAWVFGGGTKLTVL
VH: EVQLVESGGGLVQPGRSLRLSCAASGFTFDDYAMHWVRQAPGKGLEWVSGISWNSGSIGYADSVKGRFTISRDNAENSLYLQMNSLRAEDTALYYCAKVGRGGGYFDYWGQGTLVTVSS

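In library AAYL51, one, two or three CDR residues were substituted; doubles and triples were drawn at random. The scFvs were displayed on barcoded MATa yeast, the peptide on MATalpha yeast. The frequency of each diploid, read from paired DNA barcodes, reflects how well the two displayed proteins bind. A regression on co-assayed BCL2-family reference pairs converts the normalised counts of each replicate to an apparent Kd. There are three technical replicates.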

Each variant is given by its three heavy chain CDRs, as the data file delimits them; those of the parent are GFTFDDYAMH, GISWNSGSIGYADSVK, VGRGGGYFDY. Every variant below is changed at G50 of the VH (sequential numbering). The Kd shown is the geometric mean over detected replicates; a lower Kd is a better binder. A pair that was not seen in any replicate is written "no signal"; this usually means weak binding, but a binder can also be missed.

GFTFDDYAWH / MISWNSGSIAYADSVK / VGRGGGYFDY: no signal (0 of 3 replicates).
GFTFDDYAMH / SISWHSGSIGYADSVK / VGRGGGYFDF: 590 nM (1 of 3 replicates).
GFTFDDYAMH / LISWNSGSIGYADSVK / VHRGGGYFDN: 190 µM (2 of 3 replicates).
GFTFDDYAMH / LISWNSGSIGYADSVT / VGRGGGYSDY: no signal (0 of 3 replicates).
GFLFDWYAMH / SISWNSGSIGYADSVK / VGRGGGYFDY: 33 µM (2 of 3 replicates).
LMTFDDYAMH / MISWNSGSIGYADSVK / VGRGGGYFDY: 120 µM (3 of 3 replicates).
WFTFDDYAMH / VISWNSGSIGYADSVK / CGRGGGYFDY: no signal (0 of 3 replicates).
GFTFDDYAMH / VISWNSGSIGYADSVL / VGRGGGYFDH: 57 µM (3 of 3 replicates).
GFTFDDYAMH / WISWNSGSIGYADSVE / VGRGGGGFDY: 310 µM (3 of 3 replicates).
GFTFDDYAMH / QISWNSGHIGYADSVK / VGRGGGYFDD: 510 µM (1 of 3 replicates).
GFTFDHYAMH / VISWNSGGIGYADSVK / VGRGGGYFDY: no signal (0 of 3 replicates).
GFTNDDYAMH / PISWNSGSIGYADGVK / VGRGGGYFDY: no signal (0 of 3 replicates).
GFTFDDNAMH / QISWNSGSIGYADIVK / VGRGGGYFDY: no signal (0 of 3 replicates).
GFTFDPYAMH / QISWNSGSIGYADSVA / VGRGGGYFDY: 7.4 µM (1 of 3 replicates).
GFTFDDYAMH / HISLNSFSIGYADSVK / VGRGGGYFDY: 68 µM (3 of 3 replicates).
GFTFDDYAMH / PQSWESGSIGYADSVK / VGRGGGYFDY: no signal (0 of 3 replicates).
GFTFDDYAMH / HISWNSGSIGYADSVK / VGRFGGYFQY: 65 µM (1 of 3 replicates).
GFFFDDYAMH / CISWNSGSIGYADSVK / VGRRGGYFDY: no signal (0 of 3 replicates).
GFTFDDYAMQ / CISWNSGSIGYADSVK / VGRGGGYFDY: 170 µM (1 of 3 replicates).
GFTFDDYAMH / CISWNSGSIGYADSKK / VGRGGGYFDY: 11 µM (1 of 3 replicates).
GFTFDDYAMH / DVSWNSGNIGYADSVK / VGRGGGYFDY: 21 µM (2 of 3 replicates).
GFTFDAYAMH / FISWNSGSIGCADSVK / VGRGGGYFDY: no signal (0 of 3 replicates).
TFTFDDYAMH / YISWNSGSIGYADSVK / VGRGGGYFDY: no signal (0 of 3 replicates).
GFTFDDYAMH / WISWNSGSYGYADSVK / VGRGGRYFDY: 230 µM (2 of 3 replicates).
GFTFDDYHMH / LISWNSGSIGYADSVK / VGRGTGYFDY: no signal (0 of 3 replicates).
GCTFDDYAMH / NISWNSGSIGYADSVK / VGRGGGYFDN: 65 µM (3 of 3 replicates).
GFTFDDYAMH / CISWNSGSIGYVDSVK / VGRGGGYFLY: no signal (0 of 3 replicates).
GPTFDDYAMH / YISWNSGSIGYADSVK / VGRGGGYFDY: 50 µM (2 of 3 replicates).
GFTFRDYDMH / MISWNSGSIGYADSVK / VGRGGGYFDY: no signal (0 of 3 replicates).
GFTFDDYAMH / HISWNSGSIGYEDSVK / VGRNGGYFDY: no signal (0 of 3 replicates).
GFEFDDYAMH / EISWNSGSIGYADSVK / VGRGGGYFDV: 26 µM (1 of 3 replicates).
GFTFDDYAMH / VISWNSGSIGYADSVK / VGRGGFYFDY: 240 µM (2 of 3 replicates).
GFTFDDYAMH / YISWNSGSIGDADSVK / VGRGGGYFDY: no signal (0 of 3 replicates).
GFTFDCYAMH / TISWNSGSIGYADSVK / VGKGGGYFDY: 2.3 µM (1 of 3 replicates).
GFTFDDYAMH / YISWNSGCIGYADSVK / VGRGGLYFDY: 16 µM (1 of 3 replicates).
GFTFDDYAMH / YISWNSGGIGYADSVK / VGRGGGYFHY: 330 µM (1 of 3 replicates).
GFIFDDYAMH / MISWNSGSIGYADSVK / VGREGGYFDY: 23 µM (2 of 3 replicates).
GQTFDDYAMH / DISWNSGSIGYADSVK / VGRGPGYFDY: no signal (0 of 3 replicates).
GFDFDDYAMH / RISWNSGSIGYADSVK / VGRGGMYFDY: 9.4 µM (2 of 3 replicates).
GFTFDDYAMH / LISWNSGSIGYAKSDK / VGRGGGYFDY: 13 µM (2 of 3 replicates).
DFTFDDYAMH / IISWNSGSIGYADSVK / VGRGGGYFYY: 1.5 µM (1 of 3 replicates).

From the list, the first 3 with no signal in any replicate:

The variant GFTFDDYAWH / MISWNSGSIAYADSVK / VGRGGGYFDY gave no signal (0 of 3 replicates).
The variant GFTFDDYAMH / LISWNSGSIGYADSVT / VGRGGGYSDY gave no signal (0 of 3 replicates).
The variant WFTFDDYAMH / VISWNSGSIGYADSVK / CGRGGGYFDY gave no signal (0 of 3 replicates).

Empty control strains, which show no peptide, gave a signal in 21% of pairings with library AAYL51; the median was 34 µM and 95% of these signals were weaker than 1.8 µM. No background was subtracted.